Measured affinities in a library of Ab-95 light chain variants

Source: Engelhart et al. 2022 (doi:10.1038/s41597-022-01779-4), MIT Lincoln Laboratory and A-Alpha Bio; data file from the FLAb repository.

Binding partner: SARS-CoV-2 spike HR2 peptide, sequence PDVDLGDISGINAS.

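The parent was found by panning a naive human phage display library on the peptide. The library (AAYL52) carries one to three amino acid substitutions per variant, with no insertions or deletions. Affinity was read by AlphaSeq, a pooled yeast mating assay with surface-displayed partners. Binding brings cells together so that they mate, and sequencing counts the barcode pairs among the diploids. A regression on co-assayed BCL2-family reference pairs converts the normalised counts of each replicate to an apparent Kd. Each pool was mated in three replicate cultures.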

The variants keep the heavy chain, the linker and the frameworks of Ab-95 (scFv order VH, a 15-residue (Gly4Ser)3 linker, VL).
VH: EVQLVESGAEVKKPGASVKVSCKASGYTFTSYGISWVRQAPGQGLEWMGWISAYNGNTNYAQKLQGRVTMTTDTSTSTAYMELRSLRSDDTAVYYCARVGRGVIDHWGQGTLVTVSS
VL: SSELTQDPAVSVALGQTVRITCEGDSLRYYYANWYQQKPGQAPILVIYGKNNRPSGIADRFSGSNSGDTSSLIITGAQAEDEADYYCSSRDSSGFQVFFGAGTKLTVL

Sequences are complete VL domains.
Numbers give log10(Kd / nM), so 0 is 1 nM and 3 is 1 µM. Smaller is tighter.
A pair that was not seen in that replicate is written "ND"; this usually means weak binding, but a binder can also be missed.

VL	replicates, log10 nM	empty controls
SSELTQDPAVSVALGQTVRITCERDSLKYYYANWYQQKPGQAPILVIYGYNNRPSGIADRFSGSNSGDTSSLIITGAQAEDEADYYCSSRDSSGFQVFFGAGTKLTVL	2.23 3.39 2.96	1 of 9 (4.64)
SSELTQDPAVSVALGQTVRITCEGDSLRYYYANWYQQKPGQAPILVIYGKNNRPSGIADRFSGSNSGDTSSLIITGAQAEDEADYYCSSRDSSWFQFMFGAGTKLTVL	3.05 3.51 2.47	0 of 9
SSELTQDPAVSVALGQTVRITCEGDSLRYYYMNWYQQKPGQAPILVIYGKNNRPRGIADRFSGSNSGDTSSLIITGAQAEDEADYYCSSRDSSGFQVVFGAGTKLTVL	4.38 ND ND	5 of 9 (3.78)
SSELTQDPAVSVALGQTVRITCEGDSLRYYYAPWYQQKPGQAPILVIYGCNNRPSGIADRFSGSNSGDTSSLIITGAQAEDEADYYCSSRDASGFQVFFGAGTKLTVL	3.44 3.50 ND	4 of 9 (3.93)
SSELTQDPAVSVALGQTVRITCEGDSLRHCPANWYQQKPGQAPILVIYGKNNRPSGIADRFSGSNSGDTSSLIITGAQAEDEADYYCSSRDSSGFQVFFGAGTKLTVL	2.32 1.92 1.66	4 of 9 (3.61)
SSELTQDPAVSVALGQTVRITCEGDSLPYYYWNWYQQKPGQAPILVIYGKNNRPSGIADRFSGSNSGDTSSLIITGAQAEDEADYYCSSRDSSGFDVFFGAGTKLTVL	ND ND 3.74	1 of 9 (3.65)
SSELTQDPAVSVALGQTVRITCEGDSLRYYMANWYQQKPGQAPILVIYGDNLRPSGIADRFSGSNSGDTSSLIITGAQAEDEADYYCSSRDSSGFQVFFGAGTKLTVL	0.89 0.73 0.15	3 of 9 (4.32)
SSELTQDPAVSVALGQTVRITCEGDSLRYYYANWYQQKPGQAPILVIYKKNNRESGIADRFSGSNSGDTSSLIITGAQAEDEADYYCSSRDSSGLQVFFGAGTKLTVL	ND ND 4.35	2 of 9 (3.86)
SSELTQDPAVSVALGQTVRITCEGDNCRYYYANWYQQKPGQAPILVIYGKNNRPSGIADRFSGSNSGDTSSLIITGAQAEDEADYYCSSRDSIGFQVFFGAGTKLTVL	4.96 ND ND	2 of 9 (3.83)
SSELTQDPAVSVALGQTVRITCEGDSLRYSYANWYQQKPGQAPILVIYGKNNRPSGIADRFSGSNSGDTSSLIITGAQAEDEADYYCSSRDIYGFQVFFGAGTKLTVL	3.05 2.95 1.95	3 of 9 (3.50)
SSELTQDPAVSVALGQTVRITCQGDSLRYIYANWYQQKPGQAPILVIYIKNNRPSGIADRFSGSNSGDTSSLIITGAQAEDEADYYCSSRDSSGFQVFFGAGTKLTVL	ND ND ND	2 of 9 (4.16)
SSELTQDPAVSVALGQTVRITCEGDVLRYYYANWYQQKPGQAPILVIYGKNNRPSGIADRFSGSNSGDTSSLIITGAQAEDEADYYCSSRDSSQPQVFFGAGTKLTVL	ND 3.49 ND	3 of 9 (3.51)
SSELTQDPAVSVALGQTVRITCEGDSLRYYYANWYQQKPGQAPILVIYGKNNKISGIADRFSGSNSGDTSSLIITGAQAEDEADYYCSSDDSSGFQVFFGAGTKLTVL	3.68 5.25 ND	4 of 9 (3.88)
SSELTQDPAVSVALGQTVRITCEGDSLRYKYANWYQQKPGQAPILVIYGKNNRPSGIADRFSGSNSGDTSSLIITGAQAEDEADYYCSERDSSGFQVQFGAGTKLTVL	2.23 1.77 1.81	1 of 9 (3.85)
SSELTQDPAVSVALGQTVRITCEGDYWRYYYANWYQQKPGQAPILVIYGKYNRPSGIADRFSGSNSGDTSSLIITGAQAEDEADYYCSSRDSSGFQVFFGAGTKLTVL	4.14 ND ND	2 of 9 (3.60)
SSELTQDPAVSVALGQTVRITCEGISVRYYYARWYQQKPGQAPILVIYGKNNRPSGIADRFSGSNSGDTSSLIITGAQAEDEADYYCSSRDSSGFQVFFGAGTKLTVL	ND ND 4.10	0 of 9
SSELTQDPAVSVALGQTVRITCEGDSLRYKYANWYQQKPGQAPILVIYGKNNRPSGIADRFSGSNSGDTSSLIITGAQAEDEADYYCSSRDSSMFQVFFGAGTKLTVL	1.45 1.24 0.91	5 of 9 (4.10)
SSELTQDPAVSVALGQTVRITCEGDSLRYYYANWYQQKPGQAPILVIYGKFNRPAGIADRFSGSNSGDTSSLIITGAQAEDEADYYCSSRDSSGFQVAFGAGTKLTVL	4.89 ND ND	4 of 9 (4.15)
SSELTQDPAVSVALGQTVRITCEGDSCLYYYANWYQQKPGQAPILVIYGKNNRPSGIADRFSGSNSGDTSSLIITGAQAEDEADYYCSSRDSSGFQVNFGAGTKLTVL	ND ND 4.40	4 of 9 (3.97)
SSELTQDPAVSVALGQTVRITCEGDSLLYYYATWYQQKPGQAPILVIYGKNNRPSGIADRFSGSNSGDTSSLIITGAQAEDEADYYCSSRDFSGFQVFFGAGTKLTVL	ND 5.56 ND	0 of 9
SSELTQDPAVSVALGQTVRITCEGDSLRYYYANWYQQKPGQAPILVIYGKNNRPFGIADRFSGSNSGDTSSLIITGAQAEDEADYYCSSRDSSGLQCFFGAGTKLTVL	2.46 2.53 ND	0 of 9
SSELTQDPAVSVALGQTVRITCEGDSLRYYYANWYQQKPGQAPILVIYGKNNRPSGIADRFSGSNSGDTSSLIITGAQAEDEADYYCPSRDSSGFQVFFGAGTKLTVL	2.03 2.54 2.62	0 of 9
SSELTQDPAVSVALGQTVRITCEGDSLRTYYYNWYQQKPGQAPILVIYGKMNRPSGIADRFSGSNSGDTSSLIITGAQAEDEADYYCSSRDSSGFQVFFGAGTKLTVL	3.93 3.91 4.30	3 of 9 (4.00)
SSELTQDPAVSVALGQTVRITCEGDSLRYYYANWYQQKPGQAPILVIYGKNNIPSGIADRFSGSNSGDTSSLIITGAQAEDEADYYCSSRPSHGFQVFFGAGTKLTVL	3.46 5.21 2.74	6 of 9 (4.28)
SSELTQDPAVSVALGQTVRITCEGDSLWYYYWNWYQQKPGQAPILVIYGKNNRPSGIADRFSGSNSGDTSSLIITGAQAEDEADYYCSSRDSSGFQVNFGAGTKLTVL	4.17 4.70 3.84	5 of 9 (3.61)
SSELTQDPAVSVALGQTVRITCEWCSLRIYYANWYQQKPGQAPILVIYGKNNRPSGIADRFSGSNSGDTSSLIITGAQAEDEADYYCSSRDSSGFQVFFGAGTKLTVL	ND ND ND	3 of 9 (3.71)

Picked from the list: the 2 lowest averages where every replicate gave a value.

VL	replicates, log10 nM	empty controls
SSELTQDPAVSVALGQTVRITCEGDSLRYYMANWYQQKPGQAPILVIYGDNLRPSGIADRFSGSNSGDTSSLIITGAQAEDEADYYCSSRDSSGFQVFFGAGTKLTVL	0.89 0.73 0.15	3 of 9 (4.32)
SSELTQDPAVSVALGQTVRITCEGDSLRYKYANWYQQKPGQAPILVIYGKNNRPSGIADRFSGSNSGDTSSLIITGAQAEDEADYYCSSRDSSMFQVFFGAGTKLTVL	1.45 1.24 0.91	5 of 9 (4.10)

As a blank, each scFv also met three strains without target: over library AAYL52, 28% of these pairings were detected, typically at 3.91 and seldom below 2.90. Also given: how often the same scFv was detected with the empty control strains, with their mean in brackets.